In this test the target is Adenosine receptors; A1 & A2 (Rattus norvegicus) (UniProt P29276+P25099+P30543). In words: Selectivity ratio between A1 and A2-receptors estimated as A2/A1. It is filed as protein assay.

Sequences of proteins named here, by UniProt entry; tags and fusion partners are left off. A change or cut given only in a name is not applied to a line headed by its entry.
UniProt P29276: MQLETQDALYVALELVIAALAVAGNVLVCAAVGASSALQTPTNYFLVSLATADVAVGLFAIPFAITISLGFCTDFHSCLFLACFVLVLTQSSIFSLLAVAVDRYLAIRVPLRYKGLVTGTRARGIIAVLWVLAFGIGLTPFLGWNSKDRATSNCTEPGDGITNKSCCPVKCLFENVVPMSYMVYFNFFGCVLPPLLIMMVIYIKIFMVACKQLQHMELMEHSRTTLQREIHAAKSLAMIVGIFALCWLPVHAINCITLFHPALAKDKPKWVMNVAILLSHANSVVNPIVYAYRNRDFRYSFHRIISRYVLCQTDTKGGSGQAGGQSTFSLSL
UniProt P25099, whole entry, looked up: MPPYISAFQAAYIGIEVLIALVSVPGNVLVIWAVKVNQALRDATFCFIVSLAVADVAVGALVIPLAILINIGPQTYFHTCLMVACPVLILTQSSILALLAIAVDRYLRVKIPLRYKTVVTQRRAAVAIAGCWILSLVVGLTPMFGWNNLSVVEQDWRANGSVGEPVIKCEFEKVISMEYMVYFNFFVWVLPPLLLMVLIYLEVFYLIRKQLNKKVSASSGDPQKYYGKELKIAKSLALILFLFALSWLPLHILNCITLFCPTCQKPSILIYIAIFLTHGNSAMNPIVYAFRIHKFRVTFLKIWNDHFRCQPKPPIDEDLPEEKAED
UniProt P30543, whole entry, looked up: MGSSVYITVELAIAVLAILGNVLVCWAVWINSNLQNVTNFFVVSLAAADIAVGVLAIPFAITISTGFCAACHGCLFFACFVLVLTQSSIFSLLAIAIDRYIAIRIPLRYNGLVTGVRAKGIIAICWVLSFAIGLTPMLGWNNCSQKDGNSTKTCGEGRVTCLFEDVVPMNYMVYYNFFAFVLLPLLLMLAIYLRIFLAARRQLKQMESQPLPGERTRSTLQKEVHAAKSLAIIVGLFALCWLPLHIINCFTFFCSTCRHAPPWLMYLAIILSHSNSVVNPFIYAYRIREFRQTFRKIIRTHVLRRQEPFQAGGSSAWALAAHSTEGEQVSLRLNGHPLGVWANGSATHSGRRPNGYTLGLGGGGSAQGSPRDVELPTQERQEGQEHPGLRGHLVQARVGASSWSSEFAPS

For the molecule `C[C@@H](c1ccccc1)n1c2ccccc2c2c(N)nc(-c3ccccc3)nc21`, the Selectivity ratio is over 469.
For `C[C@H](c1ccccc1)n1c2ccccc2c2c(N)nc(-c3ccccc3)nc21`, the Selectivity ratio was 2380.
